Results reported in US4999354A, “Imidazoquinoxaline compounds and their preparation and use” (A/S Ferrosan, priority 1987, dated 1991).

Test system: benzodiazepine receptors
Assay: in vivo displacement of 3H-flunitrazepam from brain benzodiazepine receptors in mice
Set-up: species or system mice (female, NMR)
Conditions: test substance intraperitoneally 15 min before 3H-FNM i.v., forebrains taken 20 min after 3H-FNM
Description: The pharmaceutical properties of the compounds of the invention can be illustrated by determining their capability for displacing radioactive labelled flunitrazepam from benzodiazepine receptors.
The displacement activity of the compounds of the invention may found by determining the ED50 value. The ED50 value represents the dose (mg/kg) of a test substance which causes the specific binding of flunitrazepam to benzodiazepine receptors in a living brain to be reduced to 50% of the control value.
Such an in vivo test is carried out as follows:
Principle. Twenty minutes after a dose of ^3 H-flunitrazepam ^3 H-FNM) (200 μCi/kg, i.v.) the amount of specific ^3 H-FNM binding to brain benzodiazepine receptors has reached its maximal value.
Test procedure. […] The amounts of radioactivity on the filters are determined by conventional scintillation counting. […]
Results. The ED50 value is determined from dose response curves. If only one dose of test substance is administered the ED50 value is calculated as follows, provided that the inhibition of specific binding is within the range of 25-75%: [formula] where Co is specific binding in controls and Cx is specific binding in mice treated with test substance.

CC(C)n1c(=O)c2c(-c3noc(C4CC4)n3)ncn2c2ccccc21 [Compound 3, 3-(5-cyclopropyl-1,2,4-oxadiazol-3-yl)-4,5-dihydro-5-isopropyl-4-oxo-imidazo[1,5-a]quinoxaline]
ED50 (dose that inhibits 50% of specific 3H-flunitrazepam binding to brain benzodiazepine receptors): 0.33 mg/kg
